The values below are quoted from earlier work in publication PMC4422956 (EJNMMI Research, 2014).

Chains of the proteins cited; added tags and fusions are not shown. Lines headed by an entry give the natural chain unless they say otherwise; changes in a name come on top.
UniProt P14416, whole entry: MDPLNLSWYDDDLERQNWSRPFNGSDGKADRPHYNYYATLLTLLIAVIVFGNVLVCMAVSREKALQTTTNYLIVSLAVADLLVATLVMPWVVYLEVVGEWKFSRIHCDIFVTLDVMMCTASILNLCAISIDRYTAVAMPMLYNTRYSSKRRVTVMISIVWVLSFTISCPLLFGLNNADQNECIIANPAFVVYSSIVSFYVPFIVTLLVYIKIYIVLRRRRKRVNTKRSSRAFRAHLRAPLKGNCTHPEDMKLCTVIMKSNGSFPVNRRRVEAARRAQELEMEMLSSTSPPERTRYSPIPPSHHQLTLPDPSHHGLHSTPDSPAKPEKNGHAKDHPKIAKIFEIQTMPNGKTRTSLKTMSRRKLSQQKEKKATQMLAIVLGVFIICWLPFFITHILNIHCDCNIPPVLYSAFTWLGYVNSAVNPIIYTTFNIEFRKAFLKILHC

Each structure is given as a SMILES string.

The target of this data set is T1, human DA D2L receptor (Homo sapiens, UniProt P14416).
T1 construct: gene DRD2; full-length D2L stably expressed in HEK 293 cells
Put plainly: 3H-spiperone radioligand binding, membranes. The conditions noted are these: high-affinity state; marked as published earlier by the same authors (ref […]); cited from earlier work.

In the case of `Oc1ccc2c(c1)O[C@@H](CNCc1ccc(I)cc1)CC2` [11a, (R)N-[7-hydroxychroman-2-yl]-methyl 4-iodobenzyl amine], the “pK i D 2 -high” value was 8.69.
